Consider seven molecules from patent US12129266B2, “Substituted pyrazolo[1,5-a]pyridine compound, composition containing the same and use thereof” (Shenzhen TargetRx, Inc., priority 2018, dated 2024).

This test concerns Ba/F3 parental. In words: cells. The settings on record: Mus musculus, BaF3, 72 h, read-out: IC50 (nM) Ba/F3 parental.

SMILES strings stand for the structures.

Turning to `[2H]C([2H])([2H])n1cc(-c2cc(-c3ccc(N4CC5CC(C4)N5Cc4ccc(OC)nc4)nc3)c3c(C#N)cnn3c2)cn1` [Example 7, 4-(6-(6-((6-methoxypyridin-3-yl)methyl)-3,6-diazabicyclo[3.1.1]heptan-3-yl)pyridin-3-yl)-6-(1-(methyl-d3)-1H-pyrazol-4-yl)pyrazolo[1,5-a]pyridine-3-carbonitrile], the IC50 stood at 664 nM.
Then `[2H]C([2H])([2H])Oc1ccc(CN2C3CC2CN(c2ccc(-c4cc(-c5cnn(C([2H])([2H])[2H])c5)cn5ncc(C#N)c45)cn2)C3)cn1` [Example 4, 4-(6-(6-((6-(methoxy-d3)pyridin-3-yl)methyl)-3,6-diazabicyclo[3.1.1]heptan-3-yl)pyridin-3-yl)-6-(1-(methyl-d3)-1H-pyrazol-4-yl)pyrazolo[1,5-a]pyridine-3-carbonitrile], with 261 nM; and `[2H]C([2H])([2H])Oc1ccc(C([2H])([2H])N2C3CC2CN(c2ccc(-c4cc(-c5cnn(C([2H])([2H])[2H])c5)cn5ncc(C#N)c45)cn2)C3)cn1` [Example 6, 4-(6-(6-((6-(methoxy-d3)pyridin-3-yl)methyl-d2)-3,6-diazabicyclo[3.1.1]heptan-3-yl)pyridin-3-yl)-6-(1-(methyl-d3)-1H-pyrazol-4-yl)pyrazolo[1,5-a]pyridine-3-carbonitrile], with 252 nM; and `[2H]C([2H])(c1ccc(OC)nc1)N1C2CC1CN(c1ccc(-c3cc(-c4cnn(C)c4)cn4ncc(C#N)c34)cn1)C2` [Example 2, 4-(6-(6-((6-methoxypyridin-3-yl)methyl-d2)-3,6-diazabicyclo[3.1.1]heptan-3-yl)pyridin-3-yl)-6-(1-methyl-1H-pyrazol-4-yl)pyrazolo[1,5-a]pyridine-3-carbonitrile], with 296 nM.
To `[2H]C([2H])([2H])Oc1ccc(CN2C3CC2CN(c2ccc(-c4cc(-c5cnn(C)c5)cn5ncc(C#N)c45)cn2)C3)cn1` [Example 1, 4-(6-(6-((6-(methoxy-d3)pyridin-3-yl)methyl)-3,6-diazabicyclo[3.1.1]heptan-3-yl)pyridin-3-yl)-6-(1-methyl-1H-pyrazol-4-yl)pyrazolo[1,5-a]pyridine-3-carbonitrile] belongs 288 nM; to `[2H]C([2H])(c1ccc(OC)nc1)N1C2CC1CN(c1ccc(-c3cc(-c4cnn(C([2H])([2H])[2H])c4)cn4ncc(C#N)c34)cn1)C2` [Example 5, 4-(6-(6-((6-methoxypyridin-3-yl)methyl-d2)-3,6-diazabicyclo[3.1.1]heptan-3-yl)pyridin-3-yl)-6-(1-(methyl-d3)-1H-pyrazol-4-yl)pyrazolo[1,5-a]pyridine-3-carbonitrile], 261 nM; to `[2H]C([2H])([2H])Oc1ccc(C([2H])([2H])N2C3CC2CN(c2ccc(-c4cc(-c5cnn(C)c5)cn5ncc(C#N)c45)cn2)C3)cn1` [Example 3, 4-(6-(6-((6-(methoxy-d3)pyridin-3-yl)methyl-d2)-3,6-diazabicyclo[3.1.1]heptan-3-yl)pyridin-3-yl)-6-(1-methyl-1H-pyrazol-4-yl)pyrazolo[1,5-a]pyridine-3-carbonitrile], 260 nM.
